Earlier results in patent US12275795B2, “Binding molecules against BCMA and uses thereof” (NOVARTIS AG, priority 2018, dated 2025).

Test system: EGFR mutant NSCLC
Conditions: cited from earlier work

Cc1cc(C(=O)Nc2nc3cccc(Cl)c3n2[C@@H]2CCCCN(C(=O)/C=C/CN(C)C)C2)ccn1 [Compound A40, (R,E)-N-(7-chloro-1-(1-(4-(dimethylamino)but-2-enoyl)azepan-3-yl)-1H-benzo[d]imidazol-2-yl)-2-methylisonicotinamide]
efficacy in patients: has shown efficacy in EGFR mutant NSCLC patients
